This is a selection; strong and weak results do not stand in their true shares.
What was measured:
[1] = biological target: Fibroblast growth factor 10 (Homo sapiens) (UniProt O15520); test: FGF10 binders on small-molecule microarrays, primary screen, biochemical, small-molecule microarray, 635 nm fluorescence (AID 1102); settings: FGF10 binding, fluorescence 635 nm, higher = more signal
[2] = test system: glycogen synthase kinase-3 (GSK3A per assay name; protocol says GSK3B); test: GSK3 binders on small-molecule microarrays, primary screen, biochemical, small-molecule microarray, 635 nm fluorescence, GSK3A (AID 1103); settings: small-molecule microarray binding, fluorescence 635 nm; higher = more signal; also: the record names both GSK3A and GSK3B
[3] = biological target: Epidermal growth factor receptor (Homo sapiens) (UniProt P00533); test: EGFR binders on small-molecule microarrays, primary screen, biochemical, small-molecule microarray, 635 nm fluorescence (AID 1104); settings: EGFR binding, higher = more signal;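 also: score merges 667 nm emission intensity with spot signal to noise over triplicate slides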
[4] = biological target: Follistatin-related protein 3 (Homo sapiens) (UniProt O95633); test: FSTL3 binders on small-molecule microarrays, primary screen, biochemical, small-molecule microarray, 635 nm fluorescence (AID 1105); settings: FSTL3 binding, higher = more signal;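 also: score merges emission near 667 nm and signal to noise per printed spot across three slides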
[5] = biological target: Dickkopf-related protein 1 (Homo sapiens) (UniProt O94907); test: DKK1 binders on small-molecule microarrays, primary screen, biochemical, small-molecule microarray, 635 nm fluorescence scan (AID 1106); settings: DKK1 binding, higher = more signal;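 also: score merges emission near 667 nm with signal to noise over three replicate slides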
[6] = test system: Inhibin beta A chain (activin A); test: INHBA (activin A) binders on microarrays, primary screen, biochemical, small-molecule microarray, 635 nm fluorescence scan (AID 1107); settings: small-molecule microarray binding, higher = more signal;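 also: mouse activin A protein probed at 4.33 µg/mL on printed slides; score merges bound-protein fluorescence near 667 nm with spot signal-to-noise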
[7] = modulators of HCV replicon luciferase signal, primary screen, HCV replication inhibitor project, Huh7 cells, luciferase reporter (AID 1109); settings: 48 h, higher = more signal;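 also: huh7 hepatoma cells harbouring a luciferase neomycin HCV replicon reporter; luciferase luminescence as measure of HCV replicon replication; test concentration not given here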
[8] = biological target: Left-right determination factor 2 (Homo sapiens) (UniProt O00292); test: LEFTY2 binders on small-molecule microarrays, primary screen, biochemical, small-molecule microarray, 635 nm fluorescence scan (AID 1110); settings: LEFTY2 binding, higher = more signal
[9] = biological target: Calmodulin-1 (Homo sapiens) (UniProt P0DP23); test: CALM1 binders on microarrays, EGTA buffer, profiling panel, biochemical, small-molecule microarray, Cy5-labelled CALM1 (AID 1111); settings: Cy5-CALM1 binding fluorescence, higher = more signal;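 also: labelled calmodulin applied in Tris saline Tween buffer holding calcium plus EGTA and DTT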
[10] = biological target: Calmodulin-1 (Homo sapiens) (UniProt P0DP23); test: calcium-bound CALM1 binders on microarrays, profiling panel, artefact control for SMM control-protein annotation, biochemical, small-molecule microarray, Cy5-labelled CALM1, plus calcium (AID 1112); settings: Cy5-CALM1 binding fluorescence, higher = more signal;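 also: score merges spot fluorescence with signal to noise from triplicate slides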

Sequences of proteins named here, by UniProt entry; tags and fusion partners are left off. A change or cut given only in a name is not applied to a line headed by its entry.
UniProt O15520: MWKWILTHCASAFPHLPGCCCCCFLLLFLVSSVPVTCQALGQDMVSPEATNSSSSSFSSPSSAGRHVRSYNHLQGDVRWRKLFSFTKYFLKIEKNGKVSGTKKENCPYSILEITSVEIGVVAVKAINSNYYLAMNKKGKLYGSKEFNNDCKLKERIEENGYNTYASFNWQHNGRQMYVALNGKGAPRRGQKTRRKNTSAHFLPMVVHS
UniProt O95633: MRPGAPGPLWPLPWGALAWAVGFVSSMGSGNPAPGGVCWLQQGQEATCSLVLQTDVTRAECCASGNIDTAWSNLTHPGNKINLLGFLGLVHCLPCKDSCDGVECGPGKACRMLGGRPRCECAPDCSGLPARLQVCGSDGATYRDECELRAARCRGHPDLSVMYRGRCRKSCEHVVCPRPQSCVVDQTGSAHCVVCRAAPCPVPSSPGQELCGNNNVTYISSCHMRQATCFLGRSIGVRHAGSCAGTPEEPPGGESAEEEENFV
UniProt O94907: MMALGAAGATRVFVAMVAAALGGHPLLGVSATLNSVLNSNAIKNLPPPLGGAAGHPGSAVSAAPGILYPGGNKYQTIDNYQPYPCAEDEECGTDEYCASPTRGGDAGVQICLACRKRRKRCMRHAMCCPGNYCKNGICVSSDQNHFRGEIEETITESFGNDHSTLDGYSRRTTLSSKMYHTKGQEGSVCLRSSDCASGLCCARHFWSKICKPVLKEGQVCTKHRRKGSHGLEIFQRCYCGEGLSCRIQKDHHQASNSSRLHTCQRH
UniProt O00292: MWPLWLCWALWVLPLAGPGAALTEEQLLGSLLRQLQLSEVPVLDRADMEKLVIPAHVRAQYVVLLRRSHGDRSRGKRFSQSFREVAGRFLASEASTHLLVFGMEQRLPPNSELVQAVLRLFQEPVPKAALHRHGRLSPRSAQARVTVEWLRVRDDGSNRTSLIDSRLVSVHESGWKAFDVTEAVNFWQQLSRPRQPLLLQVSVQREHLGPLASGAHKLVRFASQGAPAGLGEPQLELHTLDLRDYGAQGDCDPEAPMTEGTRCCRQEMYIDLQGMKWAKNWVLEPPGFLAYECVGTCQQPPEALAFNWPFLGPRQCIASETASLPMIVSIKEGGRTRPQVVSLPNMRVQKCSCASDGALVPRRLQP

SMILES	composite z-score [1]	composite z-score [2]	composite z-score [3]	composite z-score [4]	composite z-score [5]	composite z-score [6]	z-score [7]	composite z-score [8]	composite z-score [9]	composite z-score [10]
COP(=O)(/N=C1/CC(CCCO)=CC(c2ccc(CN3CCCC3)cc2)N1Cc1cc2c(cc1Br)OCO2)OC (stereo not given)	1.24	0.49	-0.248	0.203	0.843	1.7	-0.645	0.419	1.48	1.28
COP(=O)(/N=C1/CC(CCCO)=CC(C2CC2)N1C)OC (stereo not given)	0.539	0.586	-0.294	0.419	1.23	0.922	-0.456	0.275	1.59	0.44
CN1/C(=N\P(=O)(Oc2ccccc2)Oc2ccccc2)CC(CCCO)=CC1c1ccc(CN2CCCC2)cc1 (stereo not given)	1.36	0.92	0.271	1.14	0.705	0.807	-2.24	0.41	1.61	0.871
CN1/C(=N\P(=O)(Oc2ccccc2)Oc2ccccc2)CC(CCCO)=CC1c1cccs1 (stereo not given)	0.432	0.403	0.0352	0.351	0.025	1.07	-0.609	0.216	0.834	1.02
COP(=O)(/N=C1/CC(CCCO)=CC(c2ccc(CN3CCCC3)cc2)N1Cc1sc2ccccc2c1Cl)OC (stereo not given)	1.62	0.155	-0.17	0.587	1.99	0.956	-2.19	0.351	1.63	1.35
O=P(/N=C1/CC(CCCO)=CC(C2CC2)N1Cc1cc2c(cc1Br)OCO2)(Oc1ccccc1)Oc1ccccc1 (stereo not given)	-0.261	0.431	-0.253	0.199	-0.497	1.15	-0.496	-0.34	1.71	0.875
COP(=O)(/N=C1/CC(CCCO)=CC(c2ccc(CN3CCCC3)cc2)N1Cc1cccc(OC(F)(F)F)c1)OC (stereo not given)	1.39	1.09	0.415	1.24	1.02	1.69	-3.7	0.376	1.65	1.18
CN1/C(=N\P(=O)(Oc2ccccc2)Oc2ccccc2)CC(CCCO)=CC1C1CC1 (stereo not given)	0.002	0.0444	-0.498	0.336	-0.425	0.883	-0.387	-0.266	2.17	1.08
O=P(/N=C1/CC(CCCO)=CC(c2ccc(CN3CCCC3)cc2)N1Cc1sc2ccccc2c1Cl)(Oc1ccccc1)Oc1ccccc1 (stereo not given)	-0.0155	0.281	-0.352	-0.0928	0.199	1.13	-4.09	-0.0857	1.07	0.292
COP(=O)(/N=C1/CC(c2ccc(CO)cc2)=CC(C2CC2)N1Cc1cc2c(cc1Br)OCO2)OC (stereo not given)	1.4	0.619	0.0119	0.692	0.303	1.76	-0.72	0.455	1.33	0.889
COP(=O)(/N=C1/CC(CCCO)=CC(C2CC2)N1Cc1cc2c(cc1Br)OCO2)OC (stereo not given)	0.702	0.285	0.0843	0.652	0.217	1.7	-0.979	-0.0186	1.37	0.847
COP(=O)(/N=C1/CC(CCCO)=CC(C)N1Cc1cccc(OC(F)(F)F)c1)OC (stereo not given)	0.652	0.583	0.073	0.284	0.554	1.38	-0.276	0.0568	2.05	1.36
CN1/C(=N\P(=O)(Oc2ccccc2)Oc2ccccc2)CC(c2ccc(CO)cc2)=CC1C1CC1 (stereo not given)	0.415	0.0063	0.0368	-0.195	-0.391	1.14	-0.949	0.306	2.19	0.679
COP(=O)(/N=C1/CC(CCCO)=CC(c2cccs2)N1C)OC (stereo not given)	0.321	1.09	0.088	0.517	0.0074	1.02	0.483	0.17	1.92	1.39
O=P(/N=C1/CC(c2ccc(CO)cc2)=CC(C2CC2)N1Cc1sc2ccccc2c1Cl)(Oc1ccccc1)Oc1ccccc1 (stereo not given)	1.38	1.1	0.423	0.926	0.659	1.11	-0.862	0.646	1.11	0.809
O=P(/N=C1/CC(CCCO)=CC(C2CC2)N1Cc1sc2ccccc2c1Cl)(Oc1ccccc1)Oc1ccccc1 (stereo not given)	0.553	0.0592	-0.338	0.349	0.267	1.01	-0.884	-0.247	1.5	0.791
COP(=O)(/N=C1/CC(c2ccc(CO)cc2)=CC(C2CC2)N1C)OC (stereo not given)	0.852	0.386	-0.0986	0.682	0.424	1.33	-0.145	0.145	1.24	-0.017
COP(=O)(/N=C1/CC(c2ccc(CO)cc2)=CC(C2CC2)N1Cc1sc2ccccc2c1Cl)OC (stereo not given)	1.45	1.24	0.338	0.972	1.61	1.23	-1.16	1.05	2.37	0.908
O=P(/N=C1/CC(CCCO)=CC(C2CC2)N1Cc1cccc(OC(F)(F)F)c1)(Oc1ccccc1)Oc1ccccc1 (stereo not given)	-0.0449	0.0232	-0.288	-0.244	-0.118	0.804	-1.51	-0.191	0.358	1
O=P(/N=C1/CC(CCCO)=CC(c2cccs2)N1Cc1cc2c(cc1Br)OCO2)(Oc1ccccc1)Oc1ccccc1 (stereo not given)	0.949	0.923	0.316	1.07	0.44	0.553	-0.901	0.321	1.9	0.388
O=P(/N=C1/CC(c2ccc(CO)cc2)=CC(c2cccs2)N1Cc1cccc(OC(F)(F)F)c1)(Oc1ccccc1)Oc1ccccc1 (stereo not given)	0.295	0.133	0.0856	0.511	-0.483	1.23	-1.34	-0.306	2.1	0.954
COP(=O)(/N=C1/CC(CCCO)=CC(c2ccc(CN3CCCC3)cc2)N1C)OC (stereo not given)	0.657	0.265	-0.668	0.217	0.155	0.992	0.0103	-0.351	1.34	0.954
COP(=O)(/N=C1/CC(CCCO)=CC(C2CC2)N1Cc1sc2ccccc2c1Cl)OC (stereo not given)	1.36	0.838	0.36	1.1	0.735	1.8	-1.35	0.389	2.23	1.17
COP(=O)(/N=C1/CC(CCCO)=CC(C2CC2)N1Cc1cccc(OC(F)(F)F)c1)OC (stereo not given)	-0.274	-0.46	-0.278	-0.292	-0.391	1.67	-1.71	-0.49	1.11	1.2
O=P(/N=C1/CC(c2ccc(CO)cc2)=CC(C2CC2)N1Cc1cc2c(cc1Br)OCO2)(Oc1ccccc1)Oc1ccccc1 (stereo not given)	1.23	1.28	0.576	0.956	0.305	1.31	-1.99	0.543	1.76	0.568
COP(=O)(/N=C1/CC(c2ccc(CO)cc2)=CC(c2cccs2)N1C)OC (stereo not given)	1.17	0.12	-0.642	0.133	0.63	1.53	0.155	-0.775	1.6	1.16
CC1C=C(CCCO)C/C(=N/P(=O)(Oc2ccccc2)Oc2ccccc2)N1Cc1cccc(OC(F)(F)F)c1 (stereo not given)	0.121	0.262	-0.297	0.0722	-0.0231	0.817	-0.922	0.0418	0.396	0.718
CN1/C(=N\P(=O)(Oc2ccccc2)Oc2ccccc2)CC(c2ccc(CO)cc2)=CC1c1cccs1 (stereo not given)	0.415	-0.178	0.0779	0.199	-0.171	1.36	1.2	0.0506	1.17	0.864
O=P(/N=C1/CC(CCCO)=CC(c2ccc(CN3CCCC3)cc2)N1Cc1cc2c(cc1Br)OCO2)(Oc1ccccc1)Oc1ccccc1 (stereo not given)	-0.429	-0.276	-0.215	-0.541	-0.554	1.28	-0.427	-0.798	1.36	0.861
O=P(/N=C1/CC(CCCO)=CC(c2cccs2)N1Cc1cccc(OC(F)(F)F)c1)(Oc1ccccc1)Oc1ccccc1 (stereo not given)	0.216	0.283	0.251	0.237	-0.122	1.09	-1.65	-0.245	1.69	0.78

— PubChem BioAssay
